Here are results for 46 compounds from PubChem BioAssay AID2023 (NMMLSC, 2009).

The structures appear in SMILES notation. The list shows a part of the results, in another mix than the full data. The source made the active and inactive calls.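 How the source made its calls: active means GFP response vs DMSO above a set limit, about the screen mean plus 3 SD (cut at about 150% in these data); inconclusive means under 70 cell events counted for the yeast strain; inactive means the rest.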

This assay in a line: modulators of LAP4-GFP expression in yeast, primary screen, S. cerevisiae, multiplex flow cytometry, MLPCN library (AID 2023). The conditions noted are these: 3 h, at 10 µM, stronger effect = higher value, median GFP as percent of DMSO wells.
As to `O=C(NC(Sc1ccncn1)C(Cl)(Cl)Cl)c1ccccc1` (stereo unspecified), the GFP response vs DMSO is inactive: 92.4%.

In the case of `CC(C)CC(=O)NC(Sc1ccc(Cl)cc1)C(Cl)(Cl)Cl` (stereo unspecified), the GFP response vs DMSO was inactive: 102%.

In the case of `Nc1cc(N)c2nonc2c1[N+](=O)[O-]`, the GFP response vs DMSO was inactive: 109%.

`Clc1ccc(Cl)c(NC2=NCC(CBr)S2)c1` (stereo unspecified): the GFP response vs DMSO is inactive: 84.4%.

As to `CN1CCCC(OC(=O)C(c2ccccc2)c2ccccc2)C1` (stereo unspecified), the GFP response vs DMSO was inactive: 100%.

Take `COc1ccccc1OP(=O)(Nc1ccc(C)cn1)Oc1ccccc1OC`: the GFP response vs DMSO is inactive: 104%.

Take `Cc1ccc(OP(=O)(Nc2nccs2)Oc2ccc(C)cc2)cc1`: the GFP response vs DMSO is inactive: 109%.

As to `CN(C(=O)Cc1ccc(Cl)c(Cl)c1)[C@H]1CCCC[C@H]1N1CCCC1`, the GFP response vs DMSO is inactive: 110%.

In the case of `Cc1ccc(N/C(=N/P(=O)(N2CCOCC2)N2CCOCC2)N2CCOCC2)cc1`, the GFP response vs DMSO was inactive: 93.4%.

`NC(=O)c1cc([N+](=O)[O-])cc([N+](=O)[O-])c1N`: the GFP response vs DMSO was inactive: 89.3%.

As for `CC(=O)Nc1ccc([As](=O)(O)O)c(O)c1`, the GFP response vs DMSO was inactive: 97.4%.

Take `CC(=O)Nc1ccc(Oc2c([N+](=O)[O-])cc([N+](=O)[O-])cc2[N+](=O)[O-])cc1`: the GFP response vs DMSO was inactive: 97.5%.

In the case of `Cc1ccccc1CN(C)C(=O)COC(=O)C(O)(c1ccccc1)c1ccccc1`, the GFP response vs DMSO is inactive: 105%.

As for `C[C@@H]1C=CCP(=O)(Oc2ccccc2)O1` (stereo partly specified), the GFP response vs DMSO is inactive: 112%.

In the case of `C[C@H]1OP(=O)(Oc2ccccc2)C[C@@H]2O[C@@H]21` (stereo partly specified), the GFP response vs DMSO was inactive: 135%.

`CC(=O)c1ccc(N2CC2c2ccncc2)cc1` (stereo unspecified): the GFP response vs DMSO was inactive: 106%.

With `CC(C)(C)C(=O)NC(Sc1ccccc1)C(Cl)(Cl)Cl` (stereo unspecified), the GFP response vs DMSO is inactive: 88.8%.

For `O=P1(Nc2nc3ccc(Cl)cc3s2)COc2ccccc2O1` (stereo unspecified), the GFP response vs DMSO was inactive: 101%.

On to `CCOc1ccc(C2=NCC(CBr)S2)cc1` (stereo unspecified), for which the GFP response vs DMSO is inactive: 98.4%.

For `Cc1ccccc1OP(=O)(Nc1ccccn1)Oc1ccccc1C`, the GFP response vs DMSO was inactive: 101%.

Consider `CC(NC(=O)COC(=O)C(O)(c1ccccc1)c1ccccc1)c1ccccc1` (stereo unspecified), for which the GFP response vs DMSO was inactive: 104%.

On to `CN(C)C(=O)Oc1noc2ccccc12`, for which the GFP response vs DMSO is inactive: 103%.

Consider `O=C(OC1CN2CCC1CC2)c1ccccc1` (stereo unspecified), for which the GFP response vs DMSO is inactive: 95%.

As to `CCC(=O)N1C2C3N(C(=O)CC)C1C1N(C(=O)CC)C(C(N1C(=O)CC)N3C(=O)CC)N2C(=O)CC`, the GFP response vs DMSO was inactive: 100%.

In the case of `COC(=O)c1cc2c(s1)N=C(c1ccccc1)N(C)P2(=O)N1CCOCC1` (stereo unspecified), the GFP response vs DMSO was inactive: 106%.

Consider `Cc1ccc(OP(=O)(Nc2ccccn2)Oc2ccc(C)cc2)cc1`, for which the GFP response vs DMSO is inactive: 95.5%.

Regarding `CC(=O)NC(SC(=S)N(CC(C)C)CC(C)C)C(Cl)(Cl)Cl` (stereo unspecified), the GFP response vs DMSO is inactive: 101%.

Turning to `c1ccc(-c2nn[nH]n2)c(-c2nn[nH]n2)c1`, the GFP response vs DMSO is inactive: 102%.

For the compound `CCOC(=O)NC(Sc1ccccc1)C(Cl)(Cl)Cl` (stereo unspecified), the GFP response vs DMSO was inactive: 119%.

On to `Cc1ccc(NP(=O)(Oc2cccc(C)c2)Oc2cccc(C)c2)nc1`, for which the GFP response vs DMSO is inactive: 94.3%.

As to `O=C(NC1CCS(=O)(=O)C1)NP(=S)(Oc1ccccc1)Oc1ccccc1` (stereo unspecified), the GFP response vs DMSO is inactive: 99.5%.

As to `CCNC(=S)/N=C(\N)N[N+](=O)[O-]`, the GFP response vs DMSO was inactive: 98.7%.

On to `O=C(OC1CN2CCC1CC2)c1cccc(Cl)c1` (stereo unspecified), for which the GFP response vs DMSO was inactive: 93.5%.

Turning to `Nc1ccc([As](=O)(O)c2ccc([N+](=O)[O-])cc2)cc1`, the GFP response vs DMSO is inactive: 108%.

For the compound `C(Cc1nn[nH]n1)Cc1nn[nH]n1`, the GFP response vs DMSO is inactive: 92.4%.

With `O=[As](O)(c1ccccc1)c1ccc(O)cc1`, the GFP response vs DMSO was inactive: 99.9%.

In the case of `O=[N+]([O-])c1ncn(CCn2cnc([N+](=O)[O-])n2)n1`, the GFP response vs DMSO is inactive: 101%.

As to `CC(=O)NC(SC(=S)N(C)C)C(Cl)(Cl)Cl` (stereo unspecified), the GFP response vs DMSO was inactive: 96.4%.

On to `O=[N+]([O-])c1ccc(O)c(/C=N/Nc2ccc([N+](=O)[O-])cc2[N+](=O)[O-])c1`, for which the GFP response vs DMSO is inactive: 93.4%.

In the case of `O=P(Nc1nc2ccccc2s1)(c1ccccc1)c1ccccc1`, the GFP response vs DMSO was inactive: 109%.

In the case of `C[C@H]1OP(=O)(Oc2ccccc2)[C@H](O)[C@H](O)[C@H]1N=[N+]=[N-]` (stereo partly specified), the GFP response vs DMSO is inactive: 125%.

Turning to `CN(C)C1(CNC(=O)c2ccc(Cl)c(S(N)(=O)=O)c2)CCCCC1`, the GFP response vs DMSO is inactive: 95.7%.

With `O=P(Nc1ccccn1)(c1ccc(Br)cc1)c1ccc(Br)cc1`, the GFP response vs DMSO is inactive: 98%.

Regarding `c1nnnn1CCn1cnnn1`, the GFP response vs DMSO was inactive: 103%.

For `O=P(Nc1nccs1)(c1ccccc1)c1ccccc1`, the GFP response vs DMSO was inactive: 102%.

For `CC(C)C(=O)NC(Sc1ccccc1)C(Cl)(Cl)Cl` (stereo unspecified), the GFP response vs DMSO was inactive: 90.2%.
